Antibody variant affinities, Ab-14 light chain, assay B

Target: peptide PDVDLGDISGINAS, taken from heptad repeat 2 (HR2) of SARS-CoV-2 spike.

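Phage display of a naive human antibody library on the peptide gave the parent. These sequences belong to a second round, designed from the earlier measurements on random variants of the parent. Several design methods are mixed in this list. Affinity was read by AlphaSeq, a pooled yeast mating assay with surface-displayed partners. Pairs that bind mate more often; barcode pairs of the diploids are counted by sequencing. A regression on co-assayed BCL2-family reference pairs converts the normalised counts of each replicate to an apparent Kd. The assay was run in six technical replicates.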

Each scFv is VH, a (GGGGS)3 linker, VL, as in the parent Ab-14, and differs from it in the CDRs of the light chain only.
VH: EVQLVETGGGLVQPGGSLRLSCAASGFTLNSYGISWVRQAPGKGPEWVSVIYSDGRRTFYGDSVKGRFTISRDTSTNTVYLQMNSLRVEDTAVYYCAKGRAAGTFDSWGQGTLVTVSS
VL: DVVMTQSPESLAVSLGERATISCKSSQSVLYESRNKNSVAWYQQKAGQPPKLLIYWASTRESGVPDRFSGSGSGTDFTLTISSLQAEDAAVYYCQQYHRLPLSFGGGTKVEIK

Variants are written as CDR1, CDR2 and CDR3 of the light chain (limits as in the source). Parent: KSSQSVLYESRNKNSVA, WASTRES, QQYHRLPLS.
Variants here have more than six changes.
Values are apparent Kd, the geometric mean of the replicates that gave a signal; lower means stronger binding.
Where no diploid with the target was found in any replicate, the entry reads "nd": below detection, most likely a poor binder, though not proof of it.
In the paper, a design with two or fewer of six values counts as a poor binder.
Values of this round are not directly comparable with the first-round values of the same sequences.
Nonspecific signal, from three strains lacking the peptide, appeared in 4% of pairings of all light chain designs, centred on 430 nM (5% of these signals below 38 nM); values are not corrected for it.

For KMSQSMWYESRNRNSVA, NASNRLS, QQYHRLPLS, the assay gave 5.5 nM (6 of 6 replicates).
For LISSVWDYGSRNYNSVA, QTSTRES, QQYDRLPLS, the assay gave 12 nM (6 of 6 replicates).
For KSLQSVLYESRNKNSVA, HYSTRED, YNYPRLPLS, the assay gave nd (0 of 6 replicates).
For KLSSVTGHLSVEKNNVA, EMETREN, QQYDRLPLA, the assay gave 35 nM (2 of 6 replicates).
For KLAMALSVEFGTYHGVA, DADHRAD, QQYNRLPLS, the assay gave 3.3 nM (6 of 6 replicates).
For HITDLMYFGNEGEWNIA, DKNISVM, QQYFRLPLS, the assay gave 6.7 nM (6 of 6 replicates).
For KIEQSVLYEDRNINSVA, NASQRYS, QLYHRLPLS, the assay gave 64 nM (5 of 6 replicates).
For IISQVDAYESRNKNSIA, DQSTRGY, QQYDRLPLS, the assay gave 2.9 nM (6 of 6 replicates).
For KIEWYSMDNRLTISAIA, EASTIYQ, QQYMHLPLS, the assay gave 550 pM (2 of 6 replicates).
For KLMPSMEYESRMKNSVA, EASVREE, QQYHRLPLS, the assay gave 1.3 nM (6 of 6 replicates).
For SLAESAHMESRNKNSVA, DNSTRES, QHYDRLPLS, the assay gave 62 nM (1 of 6 replicates).
For NLVEMEGTNQTAIGNIA, SVDQRMS, QQYQRLPLI, the assay gave nd (0 of 6 replicates).
For IISGVMLVESKHKNSVA, NAETREY, QHYDRLPLS, the assay gave 230 nM (6 of 6 replicates).
For RIDSVWEQLTNRAQNVA, NATTVIA, QQYMRLPLV, the assay gave 16 nM (6 of 6 replicates).
For KFSQMFNSFSVSMNAVA, EMSTREE, QQYNRLPLA, the assay gave 4.3 nM (6 of 6 replicates).
For KLPNSWLYESRNSNSVA, HASKRMS, QQYHRLPLS, the assay gave 4.7 nM (6 of 6 replicates).
For KLSQSANYLSRVMNSVA, DNSTRES, QQYFRLPLS, the assay gave 2.1 nM (6 of 6 replicates).
For KLQQSEEYESRQFNSVA, SASQRNL, QQYHRLPLS, the assay gave 3.4 nM (6 of 6 replicates).
For KVSQSDPYESPNKNSVA, NASTRMQ, QQYHRLPLS, the assay gave 16 nM (6 of 6 replicates).
For MISQLGNMGQFAINSVA, QASLRND, QQYDRLPLA, the assay gave 2.0 nM (6 of 6 replicates).
For HLSFPWQSGHDSMHAVA, NDSTLMT, QHYNRLPLS, the assay gave 30 nM (6 of 6 replicates).
For KISQSYLYEDRNHWSVA, NASTRLS, QQYHRLPLS, the assay gave 1.5 nM (6 of 6 replicates).
For FLAMALDQGILIKNNIA, SDNLREN, QQYERLPLI, the assay gave 12 nM (2 of 6 replicates).
For KLEPSEEEESRNKNSVA, SASTRES, QDYHRLPLS, the assay gave 1.1 nM (6 of 6 replicates).
For KLSMITGHQLMSKNNVA, EMVTREN, QQYERLPLS, the assay gave 1.9 nM (6 of 6 replicates).
For KLDQSYLYGSRNKNSVA, EASEREV, QQYHRLPLY, the assay gave 1.3 nM (6 of 6 replicates).
For KISQMVRVGSTHSNSIA, EEATRSD, QQYHRLPLA, the assay gave 5.3 nM (6 of 6 replicates).
For KLRQVTGYESYNKNSVA, QTSTRVN, QDYHRLPLS, the assay gave 18 nM (6 of 6 replicates).
For TVGQVTMVEEYNKDSVA, QASTRLE, QDYHRLPLS, the assay gave 38 nM (2 of 6 replicates).
For KISGYLNKESKDKNSVA, EMVNRES, QQYDRLPLS, the assay gave 2.0 nM (6 of 6 replicates).
For KLMQVTGYESYVRNSVA, QMSTRAE, QDYHRLPLS, the assay gave 8.2 nM (6 of 6 replicates).
For MISQLYNMGTFAINSVA, QASIRNA, QQYDRLPLA, the assay gave 7.4 nM (6 of 6 replicates).
For TISQVMNTLTRHGNNVA, DLQEREE, QQYTRLPLS, the assay gave 150 nM (1 of 6 replicates).
For KLSLFYRVETVNKNSVA, DNSTRES, QDYDRLPLS, the assay gave 11 nM (4 of 6 replicates).
For QLYEMSYELSGKTHSVA, DNSTRGD, QQYFRLPLQ, the assay gave 5.6 nM (6 of 6 replicates).
For KLANYMYQGGLVQANVA, EAKELWE, QQYYHLPLA, the assay gave 130 nM (1 of 6 replicates).
For TIGQMFNGESRNRNSVA, QASTREH, QSYDRLPLS, the assay gave 3.3 nM (6 of 6 replicates).
For QLGDEQVGETLMADNIA, HSDFRAD, QQYFRLPLL, the assay gave 5.6 nM (6 of 6 replicates).
For QLPFERGDGYLQKNNVA, EGTESSH, QQYMRLPLT, the assay gave 39 nM (6 of 6 replicates).
For HVELGVGGVQKYGDSVA, HASQRQS, QQYYQLPLT, the assay gave 3.4 nM (6 of 6 replicates).
For HLGGVTEYEMRNKNSVA, QMTTRES, QQYHRLPLS, the assay gave 1.9 nM (6 of 6 replicates).
For SLELFSLSGDLPWNAVA, NEVVKLA, QQYFRLPLH, the assay gave 16 nM (6 of 6 replicates).
For KLGTTVGYEQRNKSRVA, DNSTRES, QQYDRLPLS, the assay gave 760 nM (6 of 6 replicates).

A selection of 4 entries from above:

| CDR-L1 | CDR-L2 | CDR-L3 | apparent Kd | detected |
|---|---|---|---|---|
| MISQLYNMGTFAINSVA | QASIRNA | QQYDRLPLA | 7.4 nM | 6/6 |
| KIEWYSMDNRLTISAIA | EASTIYQ | QQYMHLPLS | 550 pM | 2/6 |
| KLSMITGHQLMSKNNVA | EMVTREN | QQYERLPLS | 1.9 nM | 6/6 |
| HLGGVTEYEMRNKNSVA | QMTTRES | QQYHRLPLS | 1.9 nM | 6/6 |

Values reported by Li et al. 2023, doi:10.1038/s41467-023-39022-2 (FLAb copy).